Measurements: PMC6479714, “Multiplex Analysis Platform for Endocrine Disruption Prediction Using Zebrafish” (International Journal of Molecular Sciences, 2019)

Assay: acute toxicity test from 48–120 hpf based on the OECD FET test
Settings: zebrafish, in vivo

Row | SMILES | LC50 [mM]
1 | Cn1cc[nH]c1=S [MMI, methimazole] | 15.9
2 | C[C@]12CC[C@H]3[C@@H](CCC4=CC(=O)CC[C@@]43C)[C@@H]1CC[C@@H]2O [TES, testosterone] | 0.0778
